Laboratory results taken from patent US9090618B2, “Substituted benzimidazole-type piperidine compounds and uses thereof” (dated 2015).

What was measured:
kappa opioid receptor [1] = molecular target: T1, kappa opioid receptor (Homo sapiens (Human), UniProt P41145); assay: In vitro kappa-opioid receptor [35S]GTPγS functional assay
human μ-receptors = human μ-receptors (Homo sapiens (Human), UniProt P35372); assay: In vitro mu-opioid receptor [35S]GTPγS functional assay
[2] = molecular target: T2, human opioid receptor-like (ORL-1) (Homo sapiens (Human), UniProt P41146); assay: In vitro ORL-1 receptor [35S]GTPγS functional assay; settings: for GTPγS ORL-1 Emax [mean ± SEM]: ORL-1 receptor activity response, procedure of Example 22
kappa opioid receptor [3] = molecular target: T1, kappa opioid receptor; assay: In vitro kappa-opioid receptor binding assay ([3H]-U69,593 displacement)
[4] = molecular target: recombinant delta opioid receptor expressed in CHO-K1 cells (Homo sapiens (Human), UniProt P41143); assay: In vitro delta-opioid receptor binding assay ([3H]-Naltrindole displacement)
human μ-opioid receptors = human μ-opioid receptors (Homo sapiens (Human), UniProt P35372); assay: In vitro mu-opioid receptor binding assay ([3H]-diprenorphine displacement)
[5] = molecular target: T2, human opioid receptor-like (ORL-1); assay: In vitro ORL-1 receptor binding assay ([3H]-nociceptin displacement)

SMILES	EC50 (kappa opioid receptor [1])	EC50 (human μ-receptors)	EC50 [2]	GTPγS ORL-1 Emax [mean ± SEM] [2]	Ki (kappa opioid receptor [3])	Ki [4]	Ki (human μ-opioid receptors)	Ki [5]
NC(=O)/N=c1\[nH]c2ccccc2n1C1CCN(C2CCCCCCC2)CC1	0.824 µM	2.76 µM	0.0914 µM	90.7 ± 3.5%	–	–	–	–
CCOC(=N)/N=c1\[nH]c2ccccc2n1C1CCN(C2CCCCCCC2)CC1	0.721 µM	3.81 µM	0.0467 µM	106.3 ± 8.8%	–	–	–	–
O=C(O)CN1CCC(Cc2nc3ccccc3n2C2CC3CCCC(C2)N3C2CC3CCCCC(C3)C2)C1 (centres unmarked)	> 20 µM	–	0.0431 µM	51.7 ± 1.7%	0.344 µM	> 20 µM	4.01 µM	–
c1ccc2c(c1)nc(-c1cc[nH]n1)n2[C@H]1C[C@H]2CCC[C@@H](C1)N2[C@@H]1C[C@@H]2CCCC[C@@H](C2)C1	> 20 µM	0.466 µM	0.0104 µM	31.7 ± 0.9%	–	–	–	–
c1ccc2c(c1)nc(-c1c[nH]cn1)n2[C@H]1C[C@H]2CCC[C@@H](C1)N2[C@@H]1C[C@@H]2CCCC[C@@H](C2)C1	> 20 µM	0.564 µM	0.0284 µM	26 ± 2%	–	> 20 µM	–	–
CCN(CC)C(=O)CN1CCC[C@H]1Cc1nc2ccccc2n1[C@H]1C[C@H]2CCC[C@@H](C1)N2[C@@H]1C[C@@H]2CCCC[C@@H](C2)C1	–	–	0.355 µM	48.7 ± 1.8%	–	–	–	0.167 µM
c1ccc2c(c1)nc([C@H]1CCCN1)n2[C@H]1C[C@H]2CCC[C@@H](C1)N2[C@@H]1C[C@@H]2CCCC[C@@H](C2)C1	–	–	0.0232 µM	98.3 ± 2.0%	–	–	–	0.0019 µM
O=C(O)CN1CCC[C@H]1Cc1nc2ccccc2n1[C@H]1C[C@H]2CCC[C@@H](C1)N2[C@@H]1C[C@@H]2CCCC[C@@H](C2)C1	> 20 µM	–	0.0725 µM	40.7 ± 0.9%	–	–	–	0.049 µM
O=C(O)CCN1CCC(Cc2nc3ccccc3n2[C@H]2C[C@H]3CCC[C@@H](C2)N3[C@@H]2C[C@@H]3CCCC[C@@H](C3)C2)CC1	> 20 µM	–	0.139 µM	75.67 ± 0.88%	–	> 20 µM	> 20 µM	–
Cn1cc(Cl)c(-c2nc3ccccc3n2[C@H]2C[C@H]3CCC[C@@H](C2)N3[C@@H]2C[C@@H]3CCCC[C@@H](C3)C2)n1	> 20 µM	4.75 µM	0.0226 µM	29.3 ± 0.9%	–	–	–	–
O=C(O)CCN1CCC[C@H](c2nc3ccccc3n2[C@H]2C[C@H]3CCC[C@@H](C2)N3[C@@H]2C[C@@H]3CCCC[C@@H](C3)C2)C1	> 20 µM	–	0.078 µM	41.7 ± 3.8%	–	> 20 µM	> 20 µM	–
O=C(O)CN1CCC[C@H](c2nc3ccccc3n2[C@H]2C[C@H]3CCC[C@@H](C2)N3[C@H]2C[C@@H]3CCC[C@@H](C3)C2)C1	–	–	1.03 µM	31.3 ± 2.7%	–	> 20 µM	> 20 µM	–
O=C(O)CN1CCC/C(=C2/N(CC(=O)O)c3ccccc3N2[C@H]2C[C@H]3CCC[C@@H](C2)N3[C@@H]2C[C@@H]3CCCC[C@@H](C3)C2)C1	> 20 µM	–	0.067 µM	60 ± 1%	–	12.1 µM	11.8 µM	–
O=C(O)CN1CCN(Cc2nc3ccccc3n2[C@H]2C[C@H]3CCC[C@@H](C2)N3[C@H]2C[C@@H]3CCC[C@@H](C3)C2)CC1	–	–	0.136 µM	36.0 ± 3.2%	–	–	> 20 µM	–
